By UniProt entry, the sequences of proteins in these tests, tags left out.
UniProt Q61327, whole entry: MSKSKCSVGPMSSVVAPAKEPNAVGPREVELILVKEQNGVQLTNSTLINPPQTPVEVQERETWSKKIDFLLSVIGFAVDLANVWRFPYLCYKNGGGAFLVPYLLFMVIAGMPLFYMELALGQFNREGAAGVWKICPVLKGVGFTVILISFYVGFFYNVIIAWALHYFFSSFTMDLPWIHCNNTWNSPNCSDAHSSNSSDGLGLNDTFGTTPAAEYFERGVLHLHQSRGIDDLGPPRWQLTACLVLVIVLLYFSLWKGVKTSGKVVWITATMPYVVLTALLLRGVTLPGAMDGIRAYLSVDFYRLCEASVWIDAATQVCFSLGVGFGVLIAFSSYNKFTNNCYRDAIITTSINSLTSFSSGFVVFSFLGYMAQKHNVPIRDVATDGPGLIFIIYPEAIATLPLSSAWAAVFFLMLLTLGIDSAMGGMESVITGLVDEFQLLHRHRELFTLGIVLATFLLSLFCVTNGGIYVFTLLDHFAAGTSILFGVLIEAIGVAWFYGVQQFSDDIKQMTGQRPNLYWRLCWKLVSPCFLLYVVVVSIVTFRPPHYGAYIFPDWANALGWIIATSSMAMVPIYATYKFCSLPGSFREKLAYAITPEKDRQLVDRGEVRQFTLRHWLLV

In ChEMBL document CHEMBL3352167 (Bioorg Med Chem, 2015):

Target: Sodium-dependent dopamine transporter (Mus musculus, UniProt Q61327)
Assay: Displacement of [3H]RTI-121 from mouse DAT in striatal membranes
Assay type: cell membranes, Striatum, Membrane

Molecule Clc1ccc(CCN2CCN(CCCc3ccccc3)CC2)cc1Cl has a Ki of 8.2 µM.
